These results are taken from PubChem BioAssay AID1461 (National Center for Advancing Translational Sciences (NCATS), 2008).

Protein sequences, listed by entry. Tags and fused reporters are not part of them.
UniProt Q6W5P4, whole entry: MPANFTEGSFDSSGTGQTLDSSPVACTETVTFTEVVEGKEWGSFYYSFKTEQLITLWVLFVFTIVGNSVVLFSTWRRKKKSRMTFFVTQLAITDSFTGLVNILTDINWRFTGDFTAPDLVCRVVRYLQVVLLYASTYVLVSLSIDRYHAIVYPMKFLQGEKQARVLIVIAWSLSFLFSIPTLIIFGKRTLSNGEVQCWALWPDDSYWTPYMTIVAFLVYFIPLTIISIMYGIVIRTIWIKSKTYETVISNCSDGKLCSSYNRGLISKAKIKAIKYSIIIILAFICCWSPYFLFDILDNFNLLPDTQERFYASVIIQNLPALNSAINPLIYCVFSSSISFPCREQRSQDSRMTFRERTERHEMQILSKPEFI

This is a selection; strong and weak results do not stand in their true shares. Inconclusive results are not listed. Some structures show a salt or complex split into parts, the way the source records it. The source made the active and inactive calls. The call rests on the fitted dose curve; in most records, active means well fitted inhibition curve with a large enough effect; inconclusive means small, poorly fitted or top-dose-only effect, or effect the other way; inactive means no such curve, though single readings can be large or run the other way.
On the % scale 0 is the no-effect control and ±100 the full control effect.

This test deals with Neuropeptide S receptor (Homo sapiens) (UniProt Q6W5P4). Briefly: qHTS Assay for Antagonists of the Neuropeptide S Receptor: cAMP Signal Transduction. Further: nearly all actives have a fitted effect of over 50% in size. The conditions noted are these: CHO-NPSR cells, cAMP TR-FRET, antagonist mode; at 38.3 µM (top of the series) unless noted. On the technique in general: In qHTS, concentration-response curves come from the screen itself.
Consider `CC(C)c1ccc(NC2CCN(C(=O)OC(C)(C)C)CC2)cc1`, for which the activity change, negative = inhibition is inactive: -25.6%.

As to `COc1ccc(CN(CCCl)CCCl)cc1Cl`, the activity change, negative = inhibition is inactive: -12.4%.

Turning to `CN(C)c1cccc(C(=O)NCC2(N3CCCCC3)CCCCC2)c1`, the activity change, negative = inhibition was inactive: 4.77%.

As for `O=C(OC1CN2CCC1CC2)c1ccc([N+](=O)[O-])cc1` (centres undefined), the activity change, negative = inhibition is inactive: -11.9%.

On to `COc1ccc2c(c1O)-c1c(O)c(OC)cc3c1[C@H](C2)[N+](C)(C)CC3.O=[N+]([O-])c1cc([N+](=O)[O-])c([O-])c([N+](=O)[O-])c1[O-]`, for which the activity change, negative = inhibition was inactive: 9.28%.

As to `N#CC1(Nc2ccccc2)CCN(CCc2ccccc2)CC1`, the activity change, negative = inhibition is inactive: 9.47% [at 46.1 µM].

Turning to `O=C(NCC1(N2CCCCC2)CCCCC1)c1cccc([N+](=O)[O-])c1`, the activity change, negative = inhibition is inactive: 3.45%.

Regarding `O=C(NCC1(N2CCOCC2)CCCCC1)c1cc(=O)[nH]c2ccccc12`, the activity change, negative = inhibition is inactive: -9.02% [at 46.1 µM].

For `CN1CCN(CCOC(=O)C(O)(c2ccccc2)c2ccccc2)CC1`, the activity change, negative = inhibition is inactive: 8.74%.

With `COc1ccc(NC2CCN(C(=O)OC(C)(C)C)CC2)cc1`, the activity change, negative = inhibition is inactive: -7.51%.

Take `O=[N+]([O-])c1cc([N+](=O)[O-])c(NCC2CCS(=O)(=O)C2)c([N+](=O)[O-])c1` (centres undefined): the activity change, negative = inhibition is inactive: -7.67%.

Consider `COc1ccc(NC2CCN(CCc3ccccc3)CC2)c(OC)c1`, for which the activity change, negative = inhibition was inactive: -15.6% [at 46.1 µM].

As to `CCOc1ccc(C)cc1CN(CCCl)CCCl`, the activity change, negative = inhibition was inactive: -34.8%.

For `Cc1ccc(OCC(C)C)c(CN(CCCl)CCCl)c1`, the activity change, negative = inhibition was inactive: 19.5%.

With `COc1ccc(C(=O)NCC2(N3CCCCC3)CCCCC2)c(OC)c1OC`, the activity change, negative = inhibition is inactive: 9.06%.

Regarding `O=C(OC1CN2CCC1CC2)C1c2ccccc2Oc2ccccc21` (centres undefined), the activity change, negative = inhibition is inactive: 13.1% [at 46.1 µM].

With `N#CC1(Nc2ccccc2)CCN(Cc2ccccc2)CC1`, the activity change, negative = inhibition is inactive: -21.6%.

Regarding `CCOC(=O)N1CCC(Nc2ccc(OC)cc2)CC1`, the activity change, negative = inhibition is inactive: 11.8%.

For `O=C(NCC1(N2CCOCC2)CCCCC1)c1cc2ccccc2o1`, the activity change, negative = inhibition was inactive: -8.09% [at 46.1 µM].

For the molecule `CC(C)(C)OC(=O)N1CCC(Nc2ccccc2)CC1`, the activity change, negative = inhibition was inactive: -6.54%.

On to `CCOc1ncccc1C(=O)NCC1(N2CCOCC2)CCCCC1`, for which the activity change, negative = inhibition was inactive: -19.5% [at 46.1 µM].

With `CCCOc1ccc(C)cc1CN(CCCl)CCCl`, the activity change, negative = inhibition is inactive: -0.381%.

Turning to `COc1cc(OC)cc(C(=O)NCC2(N3CCOCC3)CCCCC2)c1`, the activity change, negative = inhibition is inactive: -9.52%.

As to `CCC(CO)(C(=O)OC1CN2CCC1CC2)c1ccccc1` (centres undefined), the activity change, negative = inhibition was inactive: -4.62% [at 46.1 µM].

Consider `Fc1ccccc1NC1CCN(Cc2ccccc2)CC1`, for which the activity change, negative = inhibition was inactive: -11.9% [at 46.1 µM].

With `CN(C)c1ccc(C(=O)NCC2(N3CCCCC3)CCCCC2)cc1`, the activity change, negative = inhibition was inactive: 14.3%.

Take `CCN1CCC(Nc2cccc(F)c2)CC1`: the activity change, negative = inhibition is inactive: 10.8%.

As for `CCOC(=O)C(CC)C1=NC(C)(C)Cc2ccccc21.O=[N+]([O-])c1cc([N+](=O)[O-])c(O)c([N+](=O)[O-])c1` (centres undefined), the activity change, negative = inhibition was inactive: 5.08%.

On to `N#Cc1ccc(C(=O)NCC2(N3CCCCC3)CCCCC2)cc1`, for which the activity change, negative = inhibition was inactive: 5.78%.

For the molecule `c1ccc(CN2CCC(Nc3ccccc3)CC2)cc1`, the activity change, negative = inhibition was inactive: 1.81% [at 46.1 µM].

Consider `COc1ccc(C(=O)NCC2(N3CCOCC3)CCCCC2)cc1OC`, for which the activity change, negative = inhibition is inactive: 15.5%.

`O=C(OC1CN2CCC1CC2)C1c2ccccc2C=Cc2ccccc21` (centres undefined): the activity change, negative = inhibition was inactive: 3.9%.

For the molecule `O=C(O)c1cccc(Nc2c([N+](=O)[O-])cc([N+](=O)[O-])cc2[N+](=O)[O-])c1`, the activity change, negative = inhibition was inactive: 8.64%.

For `N/C(=N\O)c1c(N)no[n+]1[O-]`, the activity change, negative = inhibition is inactive: -7.51% [at 46.1 µM].
